## Apparent affinities of Ab-14 variants for a coronavirus HR2 peptide

The target is the same throughout: PDVDLGDISGINAS, from the HR2 region of SARS-CoV-2 spike.

Ab-14 is the parent antibody, in scFv form: VH, then a (GGGGS)3 linker, then VL. The heavy chain is unchanged in all variants.
VH: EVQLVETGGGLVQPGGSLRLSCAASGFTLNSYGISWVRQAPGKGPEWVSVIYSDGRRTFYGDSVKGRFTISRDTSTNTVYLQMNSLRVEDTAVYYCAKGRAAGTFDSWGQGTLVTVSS
VL: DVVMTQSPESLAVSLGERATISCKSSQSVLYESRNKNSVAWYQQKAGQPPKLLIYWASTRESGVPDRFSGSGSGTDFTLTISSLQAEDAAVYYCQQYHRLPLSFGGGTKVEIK

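Phage display of a naive human antibody library on the peptide gave the parent. The variants were designed computationally from a first round of random CDR variants and then made and measured. Group labels follow the data file (Ctrl: baseline library sampled from a position-specific scoring matrix, with some repeated check sequences; GP: Gaussian process model; GPLM: also part of the Gaussian process libraries; HC: hill climbing; Gen: genetic algorithm; a sequence that several methods proposed may carry one label only). The scFvs were displayed on barcoded MATa yeast, the peptide on MATalpha yeast. Binding brings cells together so that they mate, and sequencing counts the barcode pairs among the diploids. The ratio of observed to expected reads was calibrated, replicate by replicate, on BCL2-family standards whose Kd was known from biolayer interferometry. Mating was done six times.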

The parent's light chain CDRs are KSSQSVLYESRNKNSVA, WASTRES, QQYHRLPLS; each variant's own CDRs replace them letter for letter.
Scale: log10 of Kd in nM, estimated from mating counts; low values are strong binders.
The mean shown is taken over the replicates in which the pair was detected.
An entry "nd" has no value in the source: the pair was not observed among the diploids in that replicate. This suggests poor binding but is not conclusive.
The range of this assay differs from that of the first round, and the authors advise against merging the two.
Nonspecific signal, from three strains lacking the peptide, appeared in 4% of pairings of all light chain designs, centred on 2.64 (5% of these signals below 1.59); values are not corrected for it. The control count says in how many pairings with the empty strains this scFv gave a signal, with their mean in brackets.
Where one sequence has several entries in the source, the replicates are listed entry by entry, parted by semicolons.
The authors averaged sequences with at least three values out of six and counted those with two or fewer as poor binders.

| CDR-L1 | CDR-L2 | CDR-L3 | group | log10 Kd (nM) by replicate | mean log10 Kd (nM) | control signals |
|---|---|---|---|---|---|---|
| FSSQSVLYESRNKNSVA | DASTRES | QQYHRLPLS | Ctrl | 0.06 0.22 0.32 -0.11 -0.03 0.35 | 0.14 | 2/18 (3.17) |
| KSSSSVLYESLNQNSVA | WASTRES | QQYHRLPAS | Ctrl | 2.33 1.92 nd 1.97 1.65 2.56 | 2.09 | 0/18 |
| KSSQSVLTESRNKNSVA | YASTRRS | FQYHRLPLS | Ctrl | nd nd nd nd nd nd | nd | 1/18 (1.59) |
| KSSNSVLYESRNKNSVA | EASTRES | QQYHTLPLS | Ctrl | 1.65 2.25 1.42 nd 1.83 2.79 | 1.99 | 0/18 |
| KCSQSVLYESRNKHSVA | WASTRNA | QQYHRLPLS | Ctrl | nd nd nd nd nd nd | nd | 0/18 |
| KSSQSVLYESRNKNSVA | WASTRES | QQLVRLPLQ | Ctrl | 2.57 2.84 nd 1.95 1.02 2.33 | 2.14 | 0/18 |
| KSSQSVLYESRNKNSVA | WLSQRES | QQYHRLPLW | Ctrl | nd nd nd nd nd nd | nd | 0/18 |
| KSSNSVLYESRNKNSVA | FASTRES | QQYHRLPLS | Ctrl | 1.21 2.12 2.08 3.16 1.82 nd | 2.07 | 0/18 |
| KDSQSVLYESRNKNSVA | GASTRES | QQYHRLPLS | Ctrl | 0.21 0.06 -0.07 -0.12 -0.12 0.27 | 0.04 | 0/18 |
| KSSQSVLYESRTQNNVA | GASTRCS | QQYHRLPLY | Ctrl | 0.49 0.83 0.78 0.85 0.76 0.70 | 0.74 | 0/18 |
| KSSQSVLEESRNKNSVA | WASTRES | QWYHRLPLS | Ctrl | nd nd nd nd nd nd | nd | 0/18 |
| RSSQTVQYEERNKNSVA | WASTRES | QQYHRLPLS | Ctrl | nd nd nd 1.19 nd nd | 1.19 | 0/18 |
| KSSQSVLYYSRNKNSVA | AASVRES | QQYHRLPLS | Ctrl | 0.82 1.05 0.85 0.99 0.83 0.96 | 0.92 | 0/18 |
| HSSQSVLQESRNKNSVA | WASTREW | QQYARLPPS | Ctrl | nd nd nd nd nd nd | nd | 0/18 |
| RSSQSKLWQSRNKFSVA | WASTRES | QQYHRLPFS | Ctrl | nd nd nd nd nd nd | nd | 0/18 |
| KSSVSVLYESQNKNSVA | WASVRES | QQYHRLPLS | Ctrl | nd nd nd 1.13 nd 1.18 | 1.15 | 0/18 |
| KSSLHVLYDSRNTNSVA | NASTRNV | QQYHRLPLS | Ctrl | 0.04 -0.07 -0.23 -0.16 -0.20 0.14 | -0.08 | 2/18 (2.44) |
| KSSQSVLTGSWNLNSVA | WASTRES | QQYHRLPLS | Ctrl | nd nd nd nd nd nd | nd | 1/18 (1.82) |
| KSSQLVLYESRTKNSVA | WASTRES | QQHHRLPLS | Ctrl | nd nd 1.61 nd nd nd | 1.61 | 0/18 |
| KSSQSVLYEFRNKNSVA | WASTRTS | QQYHRLPLS | Ctrl | nd nd nd nd nd 0.90 | 0.90 | 0/18 |
| KSSQSVLYESRNKNSVA | WASTREA | QQYHRLPLF | Ctrl | nd nd nd 1.81 1.55 2.10 | 1.82 | 1/18 (1.53) |
| RSSQSVLYESRNKNSVA | WASTRES | QQYHRLPLS | Ctrl | 4.24 2.52 1.25 2.02 2.25 2.45 | 2.45 | 1/18 (2.37) |
| KSSQSVLYESRNKNSVA | NASTRES | NQYHRLPLS | Ctrl | nd 1.61 nd 3.34 1.76 3.26 | 2.49 | 4/18 (2.90) |
| KSSQSVLFESRNKNPVA | SASTRES | QQYHRLPLS | Ctrl | nd nd nd 2.25 2.85 1.93 | 2.34 | 0/18 |
| KQSQSVDYESRNKNSVA | WASTRES | QQYHRLPLS | Ctrl | 1.02 0.61 1.04 0.59 0.61 0.96 | 0.80 | 2/18 (2.74) |
| KSSQSVLYESRNKNSVA | DASTREM | QQYHRLPLS | Ctrl | 0.22 0.27 0.24 0.16 0.20 0.38 | 0.25 | 1/18 (3.67) |
| KSPQSVLYESRNKNSVA | WASTRES | QQYQRLPLS | Ctrl | nd 1.32 0.63 0.52 0.97 0.85 | 0.86 | 0/18 |
| KSSQSVEYESRNKNSVA | WASTRES | QQYHRLPLS | Ctrl | nd 2.57 nd nd 3.40 nd | 2.99 | 2/18 (2.62) |
| KSSQSWLYESRNKNSVA | WASTRES | QQYHRLPLS | Ctrl | 1.60 nd nd nd 1.81 nd | 1.70 | 0/18 |
| KSSQSKLYESRNKNSVA | WASTRES | QQHHRLPLR | Ctrl | 1.18 1.08 1.03 0.67 1.62 1.71 | 1.22 | 0/18 |
| KLSQSVLYESRNKNSVA | QASTREE | QQYHRLPLS | Ctrl+GP_Gen | -0.25 -0.27 -0.53 -0.49 -0.40 -0.13; -0.64 -0.53 -0.60 -0.48 -0.66 -0.31 | -0.44 | 1/36 (3.00) |
| KSSQSVLYYSRNKNSNA | WASTRPS | QQYHRLPLS | Ctrl | nd nd nd nd nd nd | nd | 1/18 (1.03) |
| KFSQSVLYESRNKNSVA | NASTRES | QQYHRLPLS | Ctrl+GPLM_HC | 0.03 -0.24 -0.38 -0.40 -0.25 0.04; 0.04 0.07 -0.14 -0.28 0.24 0.16 | -0.09 | 1/36 (3.89) |
| KSSQSVLYESRNKNSVA | WASTRES | QQSHRLPLS | Ctrl | 2.44 nd nd 3.02 nd 2.30 | 2.59 | 1/18 (1.68) |

The opening 5 entries, copied out:

CDR-L1,CDR-L2,CDR-L3,group,log10 Kd (nM) by replicate,mean log10 Kd (nM),control signals
FSSQSVLYESRNKNSVA,DASTRES,QQYHRLPLS,Ctrl,0.06 0.22 0.32 -0.11 -0.03 0.35,0.14,2/18 (3.17)
KSSSSVLYESLNQNSVA,WASTRES,QQYHRLPAS,Ctrl,2.33 1.92 nd 1.97 1.65 2.56,2.09,0/18
KSSQSVLTESRNKNSVA,YASTRRS,FQYHRLPLS,Ctrl,nd nd nd nd nd nd,nd,1/18 (1.59)
KSSNSVLYESRNKNSVA,EASTRES,QQYHTLPLS,Ctrl,1.65 2.25 1.42 nd 1.83 2.79,1.99,0/18
KCSQSVLYESRNKHSVA,WASTRNA,QQYHRLPLS,Ctrl,nd nd nd nd nd nd,nd,0/18

From the AlphaSeq antibody data of Li et al. 2023 (doi:10.1038/s41467-023-39022-2), copy in the FLAb collection.